Data reported in PMC11154958, “Mechanism of Nitrone Formation by a Flavin-Dependent Monooxygenase” (Biochemistry, 2024).

Key:
Assay in all cases: purified protein, by the assay type
Settings in all cases: other: OxaD 1 μM, pH 7.6, 1% DMSO, roquefortine C fixed 100 μM for cosubstrates, NADPH fixed 500 μM when roquefortine C varied
NADPH = test system: NADPH
(R)-[4-^2H]-NADPH = test system: (R)-[4-^2H]-NADPH
NADH = test system: NADH

OxaD (Penicillium oxalicum) was tested, and the Km (NADPH) was 24 ± 7.0 µM and 23 ± 4.0 µM, the kcat (NADPH) was 0.93 s⁻¹ and 0.91 s⁻¹ and the kcat/Km (NADPH) was 38000 M⁻¹ s⁻¹ and 39000 M⁻¹ s⁻¹. It also gave a Km ((R)-[4-^2H]-NADPH) of 16 ± 1.0 µM, a kcat ((R)-[4-^2H]-NADPH) of 0.4 s⁻¹ and a kcat/Km ((R)-[4-^2H]-NADPH) of 25000 M⁻¹ s⁻¹. For the same substance, the Km (NADH) was 17 ± 3.0 µM, the kcat (NADH) was 0.7 s⁻¹ and the kcat/Km (NADH) was 43000 M⁻¹ s⁻¹.

Several values for one entry are separate records, joined by “and”; a condition that tells them apart may be missing. Equal entries are not always repeated.
